These results are taken from patent US9890152B2 (Genentech, Inc., priority 2012, dated 2018).

Amino acid sequences for entries named in this document (tags omitted). Residues count along the entry.
UniProt P00533, 25-1210 T790M/L858R limits assumed: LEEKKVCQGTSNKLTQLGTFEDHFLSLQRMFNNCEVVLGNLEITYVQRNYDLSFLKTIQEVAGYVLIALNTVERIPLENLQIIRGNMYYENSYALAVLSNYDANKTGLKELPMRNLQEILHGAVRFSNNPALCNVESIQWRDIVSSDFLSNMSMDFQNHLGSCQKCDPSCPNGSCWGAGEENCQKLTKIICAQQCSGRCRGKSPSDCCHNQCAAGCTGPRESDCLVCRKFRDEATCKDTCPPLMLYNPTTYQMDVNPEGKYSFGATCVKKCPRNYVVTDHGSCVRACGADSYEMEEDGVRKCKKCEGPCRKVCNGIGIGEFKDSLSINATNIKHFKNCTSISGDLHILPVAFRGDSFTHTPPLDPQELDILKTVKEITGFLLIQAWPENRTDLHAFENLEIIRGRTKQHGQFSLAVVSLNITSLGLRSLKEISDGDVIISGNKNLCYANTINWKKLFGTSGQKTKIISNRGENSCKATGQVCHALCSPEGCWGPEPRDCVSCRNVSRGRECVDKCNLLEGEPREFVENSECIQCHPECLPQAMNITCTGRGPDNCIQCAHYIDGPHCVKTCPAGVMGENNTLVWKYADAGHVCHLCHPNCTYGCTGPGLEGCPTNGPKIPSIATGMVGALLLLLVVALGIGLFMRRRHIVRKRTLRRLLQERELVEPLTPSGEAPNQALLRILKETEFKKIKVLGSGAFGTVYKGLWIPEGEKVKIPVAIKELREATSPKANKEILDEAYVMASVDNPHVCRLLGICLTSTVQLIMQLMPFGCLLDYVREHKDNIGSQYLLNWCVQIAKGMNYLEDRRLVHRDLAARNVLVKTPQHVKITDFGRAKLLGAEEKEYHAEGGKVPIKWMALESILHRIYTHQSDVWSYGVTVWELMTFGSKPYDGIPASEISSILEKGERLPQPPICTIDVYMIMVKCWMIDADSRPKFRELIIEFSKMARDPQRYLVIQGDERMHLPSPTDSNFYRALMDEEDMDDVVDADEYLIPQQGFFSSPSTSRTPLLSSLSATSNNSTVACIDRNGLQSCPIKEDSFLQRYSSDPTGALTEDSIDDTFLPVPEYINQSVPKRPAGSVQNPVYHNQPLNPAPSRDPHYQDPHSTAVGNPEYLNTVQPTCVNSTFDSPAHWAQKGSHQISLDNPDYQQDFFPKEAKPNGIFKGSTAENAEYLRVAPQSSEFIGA

This experiment concerns the target EGFR T790M L858R (Homo sapiens, UniProt P00533, L858R/T790M). As to the kind of experiment: biochemical. As to conditions: EGFR(T790M/L858R) Ki (μM), 5 μM ATP, 30 min, room temperature; apparent Ki (Morrison) converted by Cheng-Prusoff, Km of ATP 1.3 μM.

For the compound `COC1CCN(c2nccc(Nc3cc4c(cn3)nc(C)n4[C@@H](C)c3ccc4[nH]cnc4c3)n2)CC1` [Example 357, 1-[(1S)-1-(1H-Benzimidazol-5-yl)ethyl]-N-[2-(4-methoxy-1-piperidyl)pyrimidin-4-yl]-2-methyl-imidazo[4,5-c]pyridin-6-amine], the Ki turned out to be 0.141 µM.

With `COC1CCN(c2nccc(Nc3cc4c(cn3)nc(C)n4Cc3cccc4[nH]cnc34)n2)CC1` [Example 358, 1-((1H-Benzo[d]imidazol-4-yl)methyl)-N-(2-(4-methoxypiperidin-1-yl)pyrimidin-4-yl)-2-methyl-1H-imidazo[4,5-c]pyridin-6-amine], the Ki was found to be 0.201 µM. In the case of `COC1CCN(c2nccc(Nc3cc4c(cn3)nc(C)n4Cc3ccc4[nH]cnc4c3)n2)CC1` [Example 359, 1-((1H-Benzo[d]imidazol-5-yl)methyl)-N-(2-(4-methoxypiperidin-1-yl)pyrimidin-4-yl)-2-methyl-1H-imidazo[4,5-c]pyridin-6-amine], the Ki worked out at 0.148 µM.

With `Cc1cc(-c2nccc(Nc3cc4c(cn3)nc(C)n4C(C)C)n2)sn1` [Example 360, 1-Isopropyl-2-methyl-N-(2-(3-methylisothiazol-5-yl)pyrimidin-4-yl)-1H-imidazo[4,5-c]pyridin-6-amine], the Ki stood at 0.089 µM. To `Cc1nc2cnc(Nc3ccnc(-c4cnc(CO)s4)n3)cc2n1C(C)C` [Example 361, (5-(4-((1-Isopropyl-2-methyl-1H-imidazo[4,5-c]pyridin-6-yl)amino)pyrimidin-2-yl)thiazol-2-yl)methanol] belongs 0.633 µM; to `Cc1n[nH]c(C)c1-c1nccc(Nc2cc3c(cn2)nc(C)n3C(C)C)n1` [Example 362, N-(2-(3,5-Dimethyl-1H-pyrazol-4-yl)pyrimidin-4-yl)-1-isopropyl-2-methyl-1H-imidazo[4,5-c]pyridin-6-amine], 0.355 µM; to `Cc1nc2cnc(Nc3ccnc(-c4cn(C)nc4N)n3)cc2n1C(C)C` [Example 363, N-(2-(3-Amino-1-methyl-1H-pyrazol-4-yl)pyrimidin-4-yl)-1-isopropyl-2-methyl-1H-imidazo[4,5-c]pyridin-6-amine], 0.0487 µM. The same measure for `Cc1nc2cnc(Nc3ccnc(N4CCCC(c5ccn[nH]5)C4)n3)cc2n1C(C)C` (stereo not shown) [Example 364, N-(2-(3-(1H-Pyrazol-5-yl)piperdine-1-yl)pyrimidin-4-yl)-1-isopropyl-2-methyl-1H-imidazo[4,5-c]pyridin-6-amine]: 0.0939 µM; for `Cc1nc2cnc(Nc3ccnc(-c4cnn(C)c4)n3)cc2n1C(C)C` [Example 365, 1-Isopropyl-2-methyl-N-(2-(1-methyl-1H-pyrazol-4-yl)pyrimidin-4-yl)-1H-imidazo[4,5-c]pyridin-6-amine]: 0.0739 µM; for `Cc1nc2cnc(Nc3ccnc(-c4cnoc4)n3)cc2n1C(C)C` [Example 366]: 0.0467 µM.

Take `Cc1nc2cnc(Nc3ccnc(-n4nccn4)n3)cc2n1C(C)C` [Example 367, N-(2-(2H-1,2,3-triazol-2-yl)pyrimidin-4-yl)-1-isopropyl-2-methyl-1H-imidazo[4,5-c]pyridine-6-amine]: the Ki amounted to 0.433 µM.

With `Cc1n[nH]c(-c2nccc(Nc3cc4c(cn3)nc(C)n4C(C)C)n2)n1` [Example 368, 1-Isopropyl-2-methyl-N-(2-(3-methyl-1H-1,2,4-triazol-5-yl)pyrimidin-4-yl)-1H-imidazo[4,5-c]pyridine-6-amine], the Ki was found to be 1.08 µM. To `CCC(C)n1cc(C(=O)NC2CCCOC2)c2cnc(Nc3ccnc(N4CCC(O)C(C)(C)C4)n3)cc21` (stereo not shown) [Example 374, 1-(sec-butyl)-6-((2-(4-hydroxy-3,3-dimethylpiperidin-1-yl)pyrimidin-4-yl)amino)-N-(tetrahydro-2H-pyran-3-yl)-lH-pyrrolo[3,2-c]pyridine-3-carboxamide] belongs 0.00159 µM; to `CCNC(=O)c1cn(C(C)C)c2cc(Nc3ccnc(-c4cnn(S(=O)(=O)N(C)C)c4)n3)ncc12` [Example 377, 6-((2-(1-(N,N-dimethylsulfamoyl)-1H-pyrazol-4-yl)pyrimidin-4-yl)amino)-N-ethyl-1-isopropyl-1H-pyrrolo[3,2-c]pyridine-3-carboxamide], 0.0028 µM; to `CO[C@@H]1CCN(c2nccc(Nc3cc4c(cn3)c(C(=O)NC3CCOCC3)cn4C(C)C)n2)C[C@@H]1F` [Example 380, 6-((2-((3S,4R)-3-fluoro-4-methoxypiperidin-1-yl)pyrimidin-4-yl)amino)-1-isopropyl-N-(tetrahydro-2H-pyran-4-yl)-1H-pyrrolo [3,2-c]pyridine-3-carboxamide], 0.00143 µM. To `CO[C@H]1CCN(c2nccc(Nc3cc4c(cn3)c(C(=O)NC3CCOCC3)cn4C(C)C)n2)C[C@H]1F` [Example 381, 6-((2-((3R,4S)-3-fluoro-4-methoxypiperidin-1-yl)pyrimidin-4-yl)amino)-1-isopropyl-N-(tetrahydro-2H-pyran-4-yl)-1H-pyrrolo [3,2-c]pyridine-3-carboxamide] belongs 0.00178 µM; to `CC(=O)N(C)c1cn(C(C)C)c2cc(Nc3ccnc(-c4cnn(S(=O)(=O)C5CC5)c4)n3)ncc12` [Example 387, N-(6-((2-(1-(cyclopropylsulfonyl)-1H-pyrazol-4-yl)pyrimidin-4-yl)amino)-1-isopropyl-1H-pyrrolo[3,2-c]pyridin-3-yl)-N-methylacetamide], 0.0207 µM. Turning to `CC(C)n1cc(C(=O)NC2COC2)c2cnc(Nc3ccnc(-c4cnn(S(=O)(=O)N5CCCC5)c4)n3)cc21` [Example 388, 1-isopropyl-N-(oxetan-3-yl)-6-((2-(1-(pyrrolidin-1-ylsulfonyl)-1H-pyrazol-4-yl)pyrimidin-4-yl)amino)-1H-pyrrolo[3,2-c]pyridine-3-carboxamide], the Ki is 0.0146 µM. To `CC(C)n1cc(N(C)C(=O)CO)c2cnc(Nc3ccnc(-c4cnn(S(=O)(=O)C5CC5)c4)n3)cc21` [Example 390, N-(6-((2-(1-(cyclopropylsulfonyl)-1H-pyrazol-4-yl)pyrimidin-4-yl)amino)-1-isopropyl-1H-pyrrolo[3,2-c]pyridin-3-yl)-2-hydroxy-N-methylacetamide] belongs 0.0412 µM. To `CC(C)n1cc(NC(=O)C(C)(C)O)c2cnc(Nc3ccnc(-c4cnn(S(=O)(=O)C5CC5)c4)n3)cc21` [Example 391, N-(6-((2-(1-(cyclopropylsulfonyl)-1H-pyrazol-4-yl)pyrimidin-4-yl)amino)-1-isopropyl-1H-pyrrolo[3,2-c]pyridin-3-yl)-2-hydroxy-2-methylpropanamide] belongs 0.0015 µM; to `CCS(=O)(=O)n1cc(-c2nccc(Nc3cc4c(cn3)c(-c3cnn(CCS(C)(=O)=O)c3)cn4C(C)C)n2)cn1` [Example 392, N-(2-(1-(ethylsulfonyl)-1H-pyrazol-4-yl)pyrimidin-4-yl)-1-isopropyl-3-(1-(2-(methylsulfonyl)ethyl)-1H-pyrazol-4-yl)-1H-pyrrolo[3,2-c]pyridin-6-amine], 0.00166 µM; to `Cc1nc2cnc(Nc3ccnc(-c4cnn(S(=O)(=O)c5ccn(C)n5)c4)n3)cc2n1C(C)C` [Example 394, 1-isopropyl-2-methyl-N-(2-(1-((1-methyl-1H-pyrazol-3-yl)sulfonyl)-1H-pyrazol-4-yl)pyrimidin-4-yl)-1H-imidazo [4,5-c]pyridin-6-amine], 0.0761 µM. The same measure for `Cc1nc2cnc(Nc3ccnc(-c4cnn(S(=O)(=O)N(C)C)c4)n3)cc2n1C(C)C` [Example 397, 4-(4-((1-isopropyl-2-methyl-1H-imidazo[4,5-c]pyridin-6-yl)amino)pyrimidin-2-yl)-N,N-dimethyl-1H-pyrazole-1-sulfonamide]: 0.00621 µM.

For `Cc1n[nH]cc1-c1nccc(Nc2cc3c(cn2)nc(C)n3C(C)C)n1` [Example 399, 1-isopropyl-2-methyl-N-(2-(3-methyl-1H-pyrazol-4-yl)pyrimidin-4-yl)-1H-imidazo[4,5-c]pyridin-6-amine], the Ki was 0.0604 µM. Regarding `Cc1nn(S(=O)(=O)C2CC2)cc1-c1nccc(Nc2cc3c(cn2)nc(C)n3C(C)C)n1` [Example 400, N-(2-(1-(cyclopropylsulfonyl)-3-methyl-1H-pyrazol-4-yl)pyrimidin-4-yl)-1-isopropyl-2-methyl-1H-imidazo[4,5-c]pyridin-6-amine], the Ki came to 0.0219 µM. Turning to `COC1CCN(c2nccc(Nc3cc4c(cn3)c(-c3cn[nH]c3)cn4C(C)C)n2)CC1` [Example 401, 1-isopropyl-N-(2-(4-methoxypiperidin-1-yl)pyrimidin-4-yl)-3-(1H-pyrazol-4-yl)-1H-pyrrolo[3,2-c]pyridin-6-amine], the Ki was determined as 0.00195 µM. As to `COC1CCN(c2nccc(Nc3cc4c(cn3)c(-c3cnn(CCO)c3)cn4C(C)C)n2)CC1` [Example 402, 2-(4-(1-isopropyl-6-((2-(4-methoxypiperidin-1-yl)pyrimidin-4-yl)amino)-1H-pyrrolo[3,2-c]pyridin-3-yl)-1H-pyrazol-1-yl)ethanol], the Ki came out at 0.00231 µM. The same measure for `COC1CCN(c2nccc(Nc3cc4c(cn3)c(-c3c[nH]cn3)cn4C(C)C)n2)CC1` [Example 403, 3-(1H-imidazol-4-yl)-1-isopropyl-N-(2-(4-methoxypiperidin-1-yl)pyrimidin-4-yl)-1H-pyrrolo[3,2-c]pyridin-6-amine]: 0.00728 µM. To `CCOCCS(=O)(=O)n1cc(-c2nccc(Nc3cc4c(cn3)nc(C)n4C(C)C)n2)cn1` [Example 405, N-(2-(1-((2-ethoxyethyl)sulfonyl)-1H-pyrazol-4-yl)pyrimidin-4-yl)-1-isopropyl-2-methyl-1H-imidazo[4,5-c]pyridin-6-amine] belongs 0.00561 µM. Regarding `CCn1cc(S(=O)(=O)n2cc(-c3nccc(Nc4cc5c(cn4)nc(C)n5C(C)C)n3)cn2)cn1` [Example 407, N-(2-(1-((1-ethyl-1H-pyrazol-4-yl)sulfonyl)-1H-pyrazol-4-yl)pyrimidin-4-yl)-1-isopropyl-2-methyl-1H-imidazo[4,5-c] pyridin-6-amine], the Ki came to 0.201 µM. The same measure for `CC(C)n1c(CO)nc2cnc(Nc3ccnc(-c4cnn(C(F)F)c4)n3)cc21` [Example 408, (6-((2-(1-(difluoromethyl)-1H-pyrazol-4-yl)pyrimidin-4-yl)amino)-1-isopropyl-1H-imidazo[4,5-c]pyridin-2-yl)methanol]: 0.0497 µM.
